What was measured:
[1] = cited from earlier work
[2] = test system: human lung-on-a-Chip; test: human lung-on-a-Chip, vascular leakage (IL-2 toxicity); format: cell-based
Description: Using the lung-Chips, various kinds of drugs can be tested to determine what would be the effective treatment.

## IL-2: chemotherapeutic cytokine IL-2
[1]
  toxicity in humans / in vivo: dose-limiting toxicity due to vascular leakage leading to pulmonary edema in humans
[2]; 10% cyclic strain
  blood clot formation: accompanied by blood clot formation
[2]; 10% cyclic strain, versus static conditions
  increase of the vascular leakage response with physiological breathing motions: more than 3 fold
[2]; static conditions, fluorescent-insulin as marker of vascular permeability
  increase in pulmonary vascular leakage into the air channel of the lung Chip: small but significant increase
